Target: α-glucosidase from Saccharomyces cerevisiae (Saccharomyces cerevisiae, UniProt P53341)
Assay: Inhibitory activity assay for yeast α-glucosidase (pNPG substrate)
Assay type: biochemical
Procedure: The inhibitory activity of α-glucosidase from Saccharomyces cerevisiae (Sigma-Aldrich, Tokyo, Japan) of the isolation compounds was determined using a previously reported procedure with modifications. p-Nitrophenyl α-glucopyranoside (pNPG) (Sigma-Aldrich, Tokyo, Japan) was used as a substrate. Other chemicals used were of analytical grade. […] Then, 40 µL of 3 mM pNPG solution was added, and the mixture was incubated at 37 °C for 20 min. The reaction was stopped by adding a solution of Na2CO3 (0.1 M, 200 µL), and the absorbance (at 405 nm) of the resulting solution was measured via an Epoch microplate reader (Biotech, Tokyo, Japan). All experiments were performed in three independent replicates. The inhibition of isolated compounds on α-glucosidase was calculated as follows:(2) Inhibition (%)=(1−A1/A0)×100 where A0 is the absorbance of the control, and A1 is the absorbance of the propolis samples. The IC50 values were determined as the half-maximal inhibitory concentration of the inhibitor (isolated compound) which provides 50% inhibition.

Amino acid sequences for entries named in this document (tags omitted). A change or cut given only in a name is not applied to a line headed by its entry.
UniProt P53341: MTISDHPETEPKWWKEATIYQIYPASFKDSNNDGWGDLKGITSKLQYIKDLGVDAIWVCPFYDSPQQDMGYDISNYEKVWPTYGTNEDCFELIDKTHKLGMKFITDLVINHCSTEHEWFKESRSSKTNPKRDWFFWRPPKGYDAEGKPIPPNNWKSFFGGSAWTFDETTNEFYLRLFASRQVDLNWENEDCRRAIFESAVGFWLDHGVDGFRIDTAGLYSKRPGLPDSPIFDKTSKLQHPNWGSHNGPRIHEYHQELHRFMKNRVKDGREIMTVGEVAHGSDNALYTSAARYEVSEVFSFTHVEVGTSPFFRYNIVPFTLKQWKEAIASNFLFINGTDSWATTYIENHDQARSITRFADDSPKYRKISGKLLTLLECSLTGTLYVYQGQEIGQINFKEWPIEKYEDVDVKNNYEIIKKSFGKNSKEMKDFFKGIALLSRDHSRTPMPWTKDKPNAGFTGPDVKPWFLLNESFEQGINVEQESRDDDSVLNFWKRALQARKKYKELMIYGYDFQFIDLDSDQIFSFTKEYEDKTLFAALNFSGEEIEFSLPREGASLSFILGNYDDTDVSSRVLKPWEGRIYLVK

inhibitory activity against α-glucosidase from the yeast (S. cerevisiae), in words: no activity at all
SMILES: OCC(CO)N[C@H]1C[C@](O)(CO)[C@@H](O)[C@H](O)[C@H]1O [Voglibose]
